Values joined by “and” are separate entries in the source; they are usually repeats but may differ in a detail not shown here. Equal values may be shown once. This is a selection; strong and weak results do not stand in their true shares. Inconclusive results are not listed. Active and inactive are the calls of the source.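 How the source made its calls: active means inhibitors giving a complete concentration-response curve with high efficacy; inconclusive means inhibitors giving only a partial curve with partial efficacy; inactive means the rest.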
These molecules were tested against Lysosomal acid glucosylceramidase (Homo sapiens) (UniProt P04062) (assay: Confirmation Concentration-Response Assay for Glucocerebrosidase Inhibitors). Settings: purified GBA, resorufin glucoside fluorescence, 20 min.
Source text: NCGC Assay Overview: NIH Molecular Libraries Screening Centers Network [MLSCN] NIH Chemical Genomics Center [NCGC] MLSCN Grant: XO1-MH078932-01 Beta-glucocerebrosidase catalyzes the hydrolysis of beta-glucocerebroside to glucose and ceramide. The inherited deficiency of beta-glucocerebrosidase results in Gaucher disease, which is characterized by a wide variety of symptoms including hepatosplenomegaly, anemia, thrombocytopenia, bony lesions and bone marrow infiltration with characteristic storage cells, known as Gaucher cells. There are also forms of the disorder affecting the central nervous system. Patients with the same genotypes can manifest with diverse clinical presentations and it is believed that improper folding and trafficking of beta-glucocerbrosidase may contribute to the phenotypes observed. Low molecular weight molecules, acting as chaperones, may potentially restore trafficking of misfolded beta-glucocerebrosidase from the endoplasmic reticulum to the lysosomes, thereby enhancing functional lysosomal beta-glucocerebrosidase activity. Using normal beta-glucocerebrosidase, an assay was developed to screen for small molecule inhibitors that could potentially act as molecular chaperones on the mutant forms [developed with NIH investigator Dr. Ellen Sidransky's laboratory]. A pro-fluorescent substrate was chosen for a screen against a small molecule library. The beta-glucocerebrosidase assay used Resorufin beta-D-Glucopyranoside (Marker Gene Technology Inc.), generating a red fluorescent product. The Km for the Resorufin beta-D-Glucopyranoside was determined to be 71.2 uM. […]
NCGC Assay Protocol Summary: Both enzyme and substrate were diluted in buffer composed of 50mM citric acid/KH2PO4, 10mM sodium taurocholate and 0.01% tween-20 at pH 5.9. […] This particular assay protocol was performed in 1536-well plate format as follows: Red fluorescence substrate assay: 2 uL enzyme 23 nL compound 1 uL substrate (final concentration of 30 uM) Incubate at room temperature (RT) for 20 minutes Read the plate in Viewlux plate reader (Ex=548(7) and Em=600(10)).

The chains behind the UniProt entries cited, without tags or fusion partners. Where a name states a change or a piece, a line headed by the entry shows the natural chain unless it says otherwise.
UniProt P04062: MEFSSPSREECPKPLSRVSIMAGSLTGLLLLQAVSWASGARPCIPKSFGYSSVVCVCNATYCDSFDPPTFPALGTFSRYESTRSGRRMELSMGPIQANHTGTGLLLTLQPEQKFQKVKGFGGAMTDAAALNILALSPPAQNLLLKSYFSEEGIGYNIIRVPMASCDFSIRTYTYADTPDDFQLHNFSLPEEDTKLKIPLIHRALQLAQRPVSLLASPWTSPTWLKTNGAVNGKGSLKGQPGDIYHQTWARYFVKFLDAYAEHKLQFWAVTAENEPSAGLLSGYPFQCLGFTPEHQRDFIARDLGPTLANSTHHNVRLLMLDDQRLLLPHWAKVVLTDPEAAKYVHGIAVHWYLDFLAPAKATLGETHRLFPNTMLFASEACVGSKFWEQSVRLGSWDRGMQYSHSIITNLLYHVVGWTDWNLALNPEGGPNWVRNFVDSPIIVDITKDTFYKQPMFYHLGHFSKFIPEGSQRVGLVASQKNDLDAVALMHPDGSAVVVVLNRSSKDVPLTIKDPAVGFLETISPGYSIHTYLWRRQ

Potency, active:
Cc1cc(N2CCOCC2)nc2ccc(NC(=O)C3CCCCC3)cc12 41.6 nM and 38.8 nM
CCc1nnc(NC(=O)c2ccc(NS(=O)(=O)c3ccccc3)cc2)s1 74.5 nM and 153 nM
COc1ccc(Cl)cc1Nc1nc(NCCO)nc(N2CCCC2)n1 682 nM and 554 nM

Reference: PubChem BioAssay AID1382 (National Center for Advancing Translational Sciences (NCATS), 2008)
